In patent US12583858B2 (Genentech, Inc., priority 2015, dated 2026) one finds EC50 data, which are given here for 7 compounds.

The chains behind the UniProt entries cited, without tags or fusion partners.
UniProt P48775, whole entry: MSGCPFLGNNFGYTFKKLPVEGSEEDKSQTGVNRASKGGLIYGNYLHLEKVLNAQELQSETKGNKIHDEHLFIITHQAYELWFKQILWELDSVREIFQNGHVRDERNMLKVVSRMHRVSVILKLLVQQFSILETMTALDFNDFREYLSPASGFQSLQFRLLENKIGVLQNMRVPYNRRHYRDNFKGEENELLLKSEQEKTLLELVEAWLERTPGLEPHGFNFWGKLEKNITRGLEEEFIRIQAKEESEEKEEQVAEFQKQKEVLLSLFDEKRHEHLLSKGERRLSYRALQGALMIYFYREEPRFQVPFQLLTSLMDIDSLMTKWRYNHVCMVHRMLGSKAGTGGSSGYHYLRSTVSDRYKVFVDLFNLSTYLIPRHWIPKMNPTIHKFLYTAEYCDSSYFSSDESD

For the first experiment, the target named is TDO2 (Homo sapiens, UniProt P48775). The experiment can be described thus: TDO2 cell assay (NFK GreenScreen, SW48 cells). The note with it: read-out: TDO2 Cell Fluor EC50; SW48 cells (high TDO expressing), 200 uM tryptophan, 24 hours; Table 3.
In the case of `O[C@H]1COCC[C@@H]1[C@H]1c2ccccc2-c2cncn21`, the concentration for a half-maximal effect (EC50) came to 1300 nM.

Turning to `OC1COCCC1C1c2ccccc2-c2cncn21` (single isomer, unassigned) [06c], the EC50 is 11000 nM.

`OC1COCCC1C1c2ccccc2-c2cncn21` (single isomer, unassigned) [06b]: the concentration for a half-maximal effect (EC50) is 78 nM.

For the compound `OC1(C2c3ccccc3-c3cncn32)CCCCCC1` (centres unmarked), the EC50 worked out at 310 nM.

On to `CC(C)S(=O)(=O)N1CCC(C2c3ccccc3-c3cncn32)C(O)C1` (single isomer, unassigned) [80c], for which the EC50 was 15000 nM.

As for `O[C@H]1COCC[C@@H]1[C@@H]1c2ccccc2-c2cncn21`, the EC50 is above 25000 nM.

For `CC1(C)CCC(O)(C2c3ccccc3-c3cncn32)CC1` (centres unmarked), the concentration for a half-maximal effect (EC50) worked out at 760 nM.

The experiment is the same for the next values; noted with them: read-out: TDO2 cell Fluor EC50; SW48 cells (high TDO expressing); TDO selectivity table.
Regarding `OC1COCCC1C1c2ccccc2-c2cncn21` (single isomer, unassigned) [06b], the concentration for a half-maximal effect (EC50) stood at 78 nM.

For orientation: EC50 means the concentration giving half of the maximal effect.
